# “Also recorded” adds a separate entry of the source.
# Legend:
# [1] = DPPH-scavenging ability assay; format: biochemical; settings: peptides; vs GSH
# Method: 2. DPPH (2,2-Diphenyl-1-Picryl-Hydrazyl-Hydrate) Assay Method
# The antioxidant activity due to the DPPH-scavenging ability of yeast hydrolyzates was measured using the methods of Choi Chang-seop et al. (2003) and Shekhar et al. (2014). 20 μl of a sample (1 to 5000 μg/ml) dissolved in distilled water was added to 180 μl of an ethanol solution containing DPPH (0.111 mM). The resulting mixture was allowed to react at 25° C. for 30 minutes, and absorbance was measured at 517 nm. Ascorbic acid was used to create the standard curve, and DPPH-scavenging ability (%) was calculated and expressed by the equation of [(absorbance upon no addition of sample−absorbance of sample)/absorbance upon no addition of sample]×100.
# (§1) The DPPH-scavenging ability and reducing power of the fractions of respective yeast hydrolyzates (Preparation Examples 1 to 4) were measured using the same method of measuring DPPH-scavenging ability and reducing power as in Experimental Example 1.
# Nrf2 mRNA = Nrf2 mRNA expression level by real-time PCR in Tert-BHP-treated HEK293 cells; format: cell-based; settings: Tert-BHP 300 μM, peptide 500 μM, 18 hours; for effect on expression of Nrf2 mRNA: FIGS. 5A to 5C; for Nrf2 mRNA expression compared to positive control GSH: vs GSH
# Method: In the present invention, the antioxidant activity was compared between the 100 types of peptides, and the change in Nrf2 mRNA expression was measured through PCR in order to select the final peptide.
# An HEK293 cell (kidney cell) line was seeded at a density of 6.6×10^5/well in DMEM (Dulbecco's Modified Eagle's Medium) medium on a 6-well plate and cultured at 37° C. under 5% CO2 for 24 hours. The next day, the medium was exchanged with serum and amino-acid-free media, and then the cells were further cultured for 20 hours or longer. The cells were treated with Tert-BHP (300 μM) and 500 μM 100 types of peptides, and then cultured for 18 hours.
# RNA was extracted from the cells treated with 100 types of peptides in (1) using TRIzol (Thermo Fisher Scientific). A GoScript™ Reverse Transcription System (Promega, Wisconsin, USA) was used to synthesize cDNA from the RNA. The cDNA was synthesized by performing annealing using 1 μg of RNA, 0.5 μg of an oligo dt primer, 0.5 μg of a random primer and RT-PCR pre-mixture at 25° C. for 5 minutes, extension at 42° C. for 60 minutes, and inactivation at 70° C. for 15 minutes.
# (§2) PCR was performed using Maxime™ PCR PreMix (i-StarTaq) (Intron Biotechnology, Korea). Real-time PCR was performed using SsoAdvanced™ Universal SYBR® Green Supermix (Bio-Rad, USA). 100 ng of cDNA, 2 μM (pmol/μl) primers, 10 μl of 2X SsoAdvanced™ Universal SYBR® Green Supermix and DW were added to the PCR plate well. Then, the temperature was cyclically adjusted to 95° C. for 3 minutes, 95° C. for 10 seconds and 58° C. for 40 seconds for a total of 40 cycles. A PCR reaction was performed using a CFX96 Touch™ Real-Time PCR Detection System (Bio-Rad, California, USA), and fluorescence intensity was measured at the end of each cycle.
# [2] = Reducing power assay (method of Oyaizu); settings: peptides; vs GSH
# Method: 3. Reducing Power Assay Method
# The reducing power of yeast hydrolysates was measured using the method of Oyaizu (1986). Specifically, a sample (1-5000 μg/ml, 60 μl) dissolved in distilled water was mixed with phosphate buffer (150 μl, 0.2M, pH 6.6) and potassium ferricyanide (K 3 Fe(CN) 6, 150 μl, 1%), followed by reacting at 50° C. for 20 minutes. Further, 150 μl of trichloroacetic acid (10%) was added thereto, followed by centrifugation at 2,000 g for 10 minutes. 150 μl of the supernatant containing the sample was added to 150 μl of DW and FeCl3 (30 μl, 0.1%). The resulting mixture was allowed to react at 25° C. for 10 minutes, and absorbance was measured at 700 nm.
# as §1
# SOD2 mRNA = SOD2 mRNA expression level by real-time PCR in Tert-BHP-treated HEK293 cells; format: cell-based; settings: Tert-BHP 300 μM, peptide 500 μM, 18 hours; for effect on SOD2 mRNA expression: FIG. 6; for SOD2 mRNA expression compared to positive control GSH: vs GSH
# Method: The expression of SOD2 mRNA as another antioxidant factor was determined. The cell line culture, RNA extraction, cDNA synthesis and PCR experiments were performed in the same manner as in Experimental Example 5 above. A detailed description thereof is given below.
# An HEK293 cell (kidney cell) line was seeded at a density of 6.6×10^5/well in DMEM (Dulbecco's Modified Eagle's Medium) medium on a 6-well plate and cultured at 37° C. and 5% CO2 for 24 hours. The next day, the medium was exchanged with serum and amino-acid-free media, and then the cells were further cultured for 20 hours or longer. The cells were treated with Tert-BHP (300 μM) and 500 μM 100 types of peptides, and then cultured for 18 hours.
# RNA was extracted from the cells treated with 100 types of peptides in (1) using TRIzol (Thermo Fisher Scientific). A GoScript™ Reverse Transcription System (Promega, Wisconsin, USA) was used to synthesize cDNA from the RNA. The cDNA was synthesized by performing annealing with 1 μg RNA, 0.5 μg of an oligo dt primer, 0.5 μg of a random primer, and RT-PCR pre-mixture at 25° C. for 5 minutes, extension at 42° C. for 60 minutes, and inactivation at 70° C. for 15 minutes.
# as §2, with “using the” for “using a”
Substance,DPPH-scavenging ability of peptide compared to GSH [1],effect on expression of Nrf2 mRNA (Nrf2 mRNA),Nrf2 mRNA expression compared to positive control GSH (Nrf2 mRNA),reducing power of peptide compared to GSH [2],effect on SOD2 mRNA expression (SOD2 mRNA),SOD2 mRNA expression compared to positive control GSH (SOD2 mRNA)
γ-GLU-HIS (EH; gamma-glutamyl linkage; The peptide is a formed by condensation of the gamma-carboxy group of L-glutamic acid with the amino group of L-histidine.),comparable or superior to GSH,improve the expression of Nrf2 mRNA,statistically significant activity; also recorded: comparable or superior to GSH,comparable or superior to GSH,increased SOD2 mRNA expression,comparable or superior; also recorded: statistically significant activity
"γ-GLU-VAL-ol (EV; gamma-glutamyl linkage; C-terminal valinol; In the peptide, Val is Valinol(2-Amino-3-methyl-1-butanol)(Val-ol). The peptide is a formed by condensation of the gamma-carboxy group of L-glutamic acid with the amino group of Val-ol; (2)..(2) valinol (2-amino-3-methyl-1-butanol))",,improve the expression of Nrf2 mRNA,comparable or superior,,increased SOD2 mRNA expression,comparable or superior
"γ-GLU-CYS(S-Me) (EC; gamma-glutamyl linkage; S-methyl cysteine; In the peptide, Cys is Cys(s-Me), which is characterized in that the hydrogen of the thiol group is substituted with a methyl group. The peptide is a formed by condensation of the gamma-carboxy group of L-glutamic acid with the amino group of; (2)..(2) cysteine in which hydrogen of the thiol group is substituted with a methyl group)",,improve the expression of Nrf2 mRNA,comparable or superior; also recorded: statistically significant activity,,increased SOD2 mRNA expression,comparable or superior; also recorded: statistically significant activity
γ-GLU-GLN (EQ; gamma-glutamyl linkage; The peptide is a formed by condensation of the gamma-carboxy group of L-glutamic acid with the amino group of L-glutamine.),,improve the expression of Nrf2 mRNA,comparable or superior; also recorded: statistically significant activity,,increased SOD2 mRNA expression,comparable or superior; also recorded: statistically significant activity
γ-GLU-GLY (EG; gamma-glutamyl linkage; The peptide is a formed by condensation of the gamma-carboxy group of L-glutamic acid with the amino group of L-glycine.),,improve the expression of Nrf2 mRNA,comparable or superior; also recorded: statistically significant activity,,increased SOD2 mRNA expression,comparable or superior; also recorded: statistically significant activity
γ-GLU-PRO (EP; gamma-glutamyl linkage; The peptide is a formed by condensation of the gamma-carboxy group of L-glutamic acid with the amino group of L-proline.),,improve the expression of Nrf2 mRNA,comparable or superior,,increased SOD2 mRNA expression,comparable or superior
γ-GLU-CYS (EC; gamma-glutamyl linkage; The peptide is a formed by condensation of the gamma-carboxy group of L-glutamic acid with the amino group of L-cysteine.),,improve the expression of Nrf2 mRNA,comparable or superior; also recorded: statistically significant activity,,increased SOD2 mRNA expression,comparable or superior; also recorded: statistically significant activity
γ-GLU-TRP (EW; gamma-glutamyl linkage; The peptide is a formed by condensation of the gamma-carboxy group of L-glutamic acid with the amino group of L-tryptophan.),,improve the expression of Nrf2 mRNA,comparable or superior; also recorded: statistically significant activity,,increased SOD2 mRNA expression,comparable or superior; also recorded: statistically significant activity
